Reference: ChEMBL document CHEMBL5325448, “Design, synthesis and biological evaluation of phosphoroxy quinazoline derivatives as potential EGFRT790M/C797S inhibitors” (Bioorg Med Chem, 2023)

Experiments:
[1] = tested on: Epidermal growth factor receptor (Homo sapiens), P00533 [UNDEFINED MUTATION]; assay: Potency index, ratio of brigatinib IC50 to test compound IC50 for inhibition of EGFR Del19/T790M/C797S triple mutant (unknown origin) using TK as substrate incubated for 120 mins in presence of ATP by HTRF assay
[2] = tested on: Epidermal growth factor receptor (Homo sapiens), P00533 [L858R,T790M,C797S]; assay: Potency index, ratio of brigatinib IC50 to test compound IC50 for inhibition of EGFR L858R/T790M/C797S triple mutant (unknown origin) using TK as substrate incubated for 120 mins in presence of ATP by HTRF assay

Ratio IC50 [1]: > 10
Ratio IC50 [2]: > 30
Structure (SMILES): COc1cc(N2CCC(N3CC(N(C)C)C3)CC2)c(C)cc1Nc1ncc(Br)c(Nc2ccc3nccnc3c2P(C)(C)=O)n1
